Source: publication PMC6470842 (Pharmaceutics, 2019)

Key:
[1] = PBPK model input parameters for PA and NAPA; settings: Kp,ss corrected with ER
[2] = Tissue distribution of PA and NAPA at steady state (Kp,ss); settings: rats, 60 min

CCN(CC)CCNC(=O)c1ccc(N)cc1 [PA, procainamide]
Kp Kidney [1]: 8.31
Kp Liver [1]: 11.7
Kp,ss Brain ([2]; PA HCl infusion 2.5 mg/kg/hr, control (without cimetidine)): 0.200 ± 0.0208
Kp,ss Brain ([2]; PA HCl infusion, co-treatment with cimetidine 100 mg/kg iv): 0.246 ± 0.0584
Kp,ss Heart ([2]; PA HCl infusion, control): 3.45 ± 1.19
Kp,ss Kidney ([2]; PA HCl infusion, control): 5.68 ± 2.01
Kp,ss Liver ([2]; PA HCl infusion, control): 2.86 ± 2.11
Kp,ss Lung ([2]; PA HCl infusion, control): 2.52 ± 1.10
Kp,ss Spleen ([2]; PA HCl infusion, control): 1.34 ± 0.424
